Measured values: US7122326B2 (Universite Louis Pasteur, priority 2001, dated 2006)

Tests used:
[1] = system: xanthurenic acid receptor(s); format: cell-based
[2] = system: xanthurenic acid binding site(s); assay: [3H]-XA binding to synaptic membranes, without ions; set-up: species or system rat; settings: pH 7.4
rat = settings: in vivo

## O=C(O)c1cc(O)c2cccc(O)c2n1 [XA, xanthurenic acid]
[1]
  inversion potential of the activated current: 2.6±2.5 mV
  inversion potential of the current activated in the presence of xanthurenic acid: −51.6±2.1
[2]
  koff (dissociation constant): 0.33±0.07 min^−
rat
  EEG: epileptogenic or deep NREM sleep activity: did not show evidence of “epileptogenic” or “deep NREM sleep” activity
